# Source: PubChem BioAssay AID652115 (Broad Institute, 2013)
# Chains of the proteins cited; added tags and fusions are not shown. Lines headed by an entry give the natural chain unless they say otherwise; changes in a name come on top.
# UniProt Q9NXA8: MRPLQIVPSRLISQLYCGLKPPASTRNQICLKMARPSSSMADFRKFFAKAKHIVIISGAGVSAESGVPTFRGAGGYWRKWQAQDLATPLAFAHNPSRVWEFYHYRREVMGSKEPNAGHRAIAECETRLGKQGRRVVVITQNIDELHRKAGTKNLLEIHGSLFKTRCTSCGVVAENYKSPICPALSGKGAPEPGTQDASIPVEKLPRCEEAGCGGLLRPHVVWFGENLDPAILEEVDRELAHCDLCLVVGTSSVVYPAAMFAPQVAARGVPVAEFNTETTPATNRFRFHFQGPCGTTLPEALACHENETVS
# The list shows a part of the results, in another mix than the full data. Activity calls are given as the source filed them. Rule as the data show it: active = inhibition above about 15%; inconclusive = no clear call, values can overlap the other calls; inactive = below that.
# Target: NAD-dependent protein deacylase sirtuin-5, mitochondrial (Homo sapiens) (UniProt Q9NXA8)
# Test: SIRT5 desuccinylase inhibitors, primary screen, biochemical, fluorescence imaging, single point, set 5 (AID 652115)
# Settings: Purified SirT5, succinyl-peptide AMC, trypsin-coupled fluorescence; at 15 µM; hits give high values
row,Compound,inhibition
1,Cc1cc(=O)[nH]c(N[N+](=O)[O-])n1,inactive: 3.85%
2,Cc1c2c(nc3ccccc13)SC(C(Cl)Cl)C2 (configuration not stated),inactive: -0.33%
3,COc1ccc(N/C(=N/P(=O)(N2CCOCC2)N2CCOCC2)N2CCOCC2)cc1,inactive: -0.21%
4,O=[N+]([O-])c1cc(Oc2ccc([N+](=O)[O-])cc2C(F)(F)F)cc([N+](=O)[O-])c1,inactive: 7.04%
5,Cc1ccc2nc3c(c(C)c2c1)CC(C(Cl)Cl)S3 (configuration not stated),inactive: -4.42%
6,[N-]=[N+]=NC1CCCCC1NC(=O)c1cc([N+](=O)[O-])cc([N+](=O)[O-])c1 (configuration not stated),inactive: -2.71%
7,Cc1ccc(OP(=O)(Nc2ccc([N+](=O)[O-])cn2)Oc2ccc(C)cc2)cc1,inactive: -3.93%
8,COc1cc(C(=O)NCC2(N3CCOCC3)CCCCC2)ccc1OCC(C)C,inactive: 0.551%
9,O=[N+]([O-])c1ccc(-c2cc([N+](=O)[O-])c(O)c([N+](=O)[O-])c2)cc1,inactive: 7.53%
10,C[As](=O)(O)c1cccc(C(=O)O)c1,inactive: 0.986%
11,O=[As](O)(c1ccc(O)cc1)c1ccccc1O,inactive: -0.057%
12,O=C(OC1CN2CCC1CC2)c1cccc2[nH]cnc12 (configuration not stated),inactive: -4.29%
13,CC(C)NC(=O)NP(=O)(Oc1ccccc1)Oc1ccccc1,inactive: -1.43%
14,CC(C)c1ccc(OP(=O)(Nc2ccccn2)Oc2ccccc2F)cc1 (configuration not stated),inactive: -1.27%
15,COC(=O)C1(C)COP(=O)(N2CCCCCC2)OC1 (configuration not stated),inactive: 0.604%
16,CCCCOc1ccc(C(=O)NCC2(N3CCCCC3)CCCCC2)cc1OC,inactive: -3.84%
17,CC1CCNP(=O)(N(CCCl)CCCl)O1 (configuration not stated),inactive: -1.04%
18,CCOC(=O)Nc1ccc([As](=O)(O)O)c(O)c1,inactive: -0.481%
19,O=[N+]([O-])c1ccc(Nc2ccc(Oc3ccc([N+](=O)[O-])cc3[N+](=O)[O-])cc2)c([N+](=O)[O-])c1,inactive: -5.08%
20,O=P(Nc1ccccn1)(c1cccc2ccccc12)c1cccc2ccccc12,inactive: 0.434%
21,Cc1cc(SC(NC=O)C(Cl)(Cl)Cl)ncn1 (configuration not stated),inactive: -4.46%
22,CCOC(=O)Nc1cccc([As](=O)(O)O)c1,inactive: -5.74%
23,O=C(Nc1ccncc1[N+](=O)[O-])c1ccc([N+](=O)[O-])cc1[N+](=O)[O-],inactive: -1.64%
24,O=C(O)C(=O)c1ccc(N(CCCl)CCCl)cc1,inactive: -5.54%
25,COP1(=S)c2c(C)nn(CCC#N)c2N=C(c2ccc(F)cc2)N1C (configuration not stated),inactive: -1.28%
26,CCOC(=O)c1ccc(NC(=O)C(C)(CCl)SC)cc1 (configuration not stated),inactive: -1.27%
27,O=C(OC1CN2CCC1CC2)c1cccc([N+](=O)[O-])c1 (configuration not stated),inactive: -2.17%
